Results taken from ChEMBL document CHEMBL5625219, “Design, synthesis fusidic acid derivatives alleviate acute lung injury via inhibiting MAPK/NF-κB/NLRP3 pathway” (Eur J Med Chem, 2023).

Key:
Format in all cases: functional, cell-based
Conditions in all cases: time 24.0 hrs
RAW264.7 [1] = test: Anti-inflammatory activity in mouse RAW264.7 cells assessed as inhibition of LPS-induced NO production preincubated with compound for 1 hrs followed by LPS stimulation and measured after 23 hrs by Griess reagent based method
RAW264.7 [2] = test: Anti-inflammatory activity in mouse RAW264.7 cells assessed as inhibition of LPS-induced TNF-alpha production preincubated with compound for 1 hrs followed by LPS stimulation and measured after 23 hrs by ELISA
RAW264.7 [3] = test: Anti-inflammatory activity in mouse RAW264.7 cells assessed as inhibition of LPS-induced IL-6 production preincubated with compound for 1 hrs followed by LPS stimulation and measured after 23 hrs by ELISA

Measured: Activity

CC(=O)O[C@H]1C[C@@]2(C)[C@@H](C[C@@H](O)[C@H]3[C@@]4(C)CC[C@@H](O)[C@@H](C)[C@@H]4CC[C@@]32C)/C1=C(\CCC=C(C)C)C(=O)OCc1cn(-c2ccccc2)nn1
active: RAW264.7 [1] Dose-Dependent Effect | RAW264.7 [2] Dose-Dependent Effect | RAW264.7 [3] Dose-Dependent Effect
